This is an account of results in patent publication US20130251632A1, “APOPTOSIS PET IMAGING AGENTS” (GE HEALTHCARE LIMITED, priority 2010, published 2013).

A short description of this assay: Affinity for phosphatidylethanolamine, Biacore 3000 with L1 chip and captured liposomes. In kind it is binding. As to conditions: POPE/POPC liposomes (20% PE). From the text: A Biacore 3000 (GE Healthcare, Uppsala) was equipped with an L1 chip. Liposomes made of POPE/POPC (20% PE) were applied for the affinity study using the capture technique recommended by the manufacturer. Each run consisted of activation of the chip surface, immobilization of liposomes, binding of peptide and wash off of both liposomes and peptide (regeneration). Similar applications can be found in Frostell-Karlsson et al [Pharm. Sciences, V.94 (1), (2005)]. Thorough washing of needle, tubing and liquid handling system with running buffer was performed after each cycle.
BIACORE software: The BIACORE control software including all method instructions was applied. A method with commands was also written in the BIACORE Method Definition Language (MDL) to have full control over pre-programmed instructions. BIACORE evaluation software was applied for analysing the sensorgrams.

For the substance duramycin, the “kd” value was around 8e-05 s⁻¹. Further, the equilibrium dissociation constant (Kd) (Table 2) is around 5 nM.
